From patent US20060194971A1, “Anethole dithiolethione and other dithiolethiones for the treatment of conditions associated with dysfunction of monoamine neruotransmission” (priority 2005, published 2006)
Like-named read-outs stand apart in the source and are kept apart here.

Amino acid sequences for entries named in this document (tags omitted).
UniProt P21396, whole entry: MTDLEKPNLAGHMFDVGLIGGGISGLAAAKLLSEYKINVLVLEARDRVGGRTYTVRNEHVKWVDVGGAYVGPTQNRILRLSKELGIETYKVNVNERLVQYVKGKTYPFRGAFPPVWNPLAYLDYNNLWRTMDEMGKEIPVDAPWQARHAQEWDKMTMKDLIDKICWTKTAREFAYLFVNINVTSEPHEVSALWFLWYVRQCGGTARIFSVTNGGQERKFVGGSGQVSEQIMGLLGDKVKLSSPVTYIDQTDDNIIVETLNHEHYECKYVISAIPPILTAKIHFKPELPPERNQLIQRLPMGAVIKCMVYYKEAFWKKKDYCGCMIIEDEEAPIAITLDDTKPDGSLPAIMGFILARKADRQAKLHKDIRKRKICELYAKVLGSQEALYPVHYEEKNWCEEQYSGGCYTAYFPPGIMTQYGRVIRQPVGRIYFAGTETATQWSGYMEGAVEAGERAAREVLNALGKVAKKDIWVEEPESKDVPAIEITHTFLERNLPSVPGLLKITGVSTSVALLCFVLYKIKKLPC

Tests used:
[1] = molecular target: monoamine oxidase A (MAO-A) (Rattus norvegicus, UniProt P21396)
Description: (§1) Neonatal rat striatal astroglial cells were used as a source for both MAO-A and MAO-B activity (Carlo et al., Brain Res 711, 175-183, 1996). Astroglial cells were cultured as described (Langeveld et al., Neurosci. Lett. 192, 13-16, 1995). Following one week in culture in 5% CO2/95% air and at 37° C., cells were trypsinized and sonicated in ice cold 25 mM Tris-HCl buffer (pH 7.4) containing 1 mM EDTA. Thereafter, the obtained lysates were centrifuged for 5 min at 1 0,000 g and 4° C., and aliquots of the supernatant fractions were taken for determination of MAO activity using the Amplex Red MAO assay kit (Molecular Probes, Leiden, The Netherlands), which is based on the method described by Zhou and Panchuk-Voloshina (Anal. Biochem. 253, 169-174, 1997). Measurements were performed according to the manufacturers instructions. Briefly, prior to addition of the substrate, the samples were incubated for 30 min in a 96 well plate with drugs or solvent (total volume of 50 μl). Thereafter, 50 μl Amplex Red reagent was added containing 2 U/ml horseradisch peroxidase (HRP), p-tyramine HCl (2 mM, substrate for both MAO A and MAO B (Youdim and Finberg, Biochem. Pharmacol., 41, 155-162, 1991) and Amplex red (10 mM). Under these circumstances, via MAO-catalyzed oxidation of tyramine in a HRP-coupled reaction, Amplex red is converted to fluorescent resorufin. To measure MAO activity, the time-dependent increase in resorufin formation was determined at 2 min time intervals for 30 min at room temperature in a fluorescence microplate reader (BMG Labtechnologies GmbH, Germany), using excitation at 544 nm and emission at 595 nm. […] For calculation of results, the data were corrected for background readings (i.e., in the absence of the MAO substrate tyramine), and expressed as the increase in arbitrary fluorescence units/min. Protein content was determined according to the method of Bradford et al., (Anal. Biochem. 72, 248-254, 1976), using BSA as a standard. Statistical comparisons between groups were made using a one-way analysis of variance (ANOVA) followed by a Newman-Keuls post-hoc test. P values <0.01 were considered significant.
(§2) MAO activity and effects of the drugs thereon were determined as detailed above.
(§3) Data are expressed as percentages of respective controls, and are averages of two till five independent experiments performed in triplicate.

[2] = tested on: total monoamine oxidase (Σ MAO); conditions: for Σ MAO activity (% inhibition): solvent 0.03% DMSO only, neonatal rat striatal astroglial cell extracts
Description: as §1, §2, §3

SMILES	MAO-A activity (% inhibition) ([1]; 0.1 μM, in the presence of 1 μM deprenyl, astroglial cell extracts)	inhibition of remaining MAO activity (approximately 20%) ([1]; in the presence of a maximally effective concentration of deprenyl)	Σ MAO activity (% inhibition) ([2]; 0.003 μM)	Σ MAO activity (% inhibition) ([2]; 0.01 μM)	Σ MAO activity (% inhibition) ([2]; 0.03 μM)	Σ MAO activity (% inhibition) ([2]; 0.1 μM)	Σ MAO activity (% inhibition) ([2]; 0.3 μM)	Σ MAO activity (% inhibition) ([2]; 1 μM)	IC50 ([2]; read-out: apparent IC50, inhibition of total astroglial MAO activity, substrate tyramine, astroglial cell extracts)
C#CCN(C)CCCOc1ccc(Cl)cc1Cl [Clor, clorgyline]	100%	inhibited completely							
C#CCN(C)[C@H](C)Cc1ccccc1 [L-dep, deprenyl]			2%	10%	28%	56%	73%	79%	~40 nM
